# Experimental data taken from PubChem BioAssay (NCATS).
# Amino acid sequences for entries named in this document (tags omitted).
# UniProt P07203, whole entry, looked up: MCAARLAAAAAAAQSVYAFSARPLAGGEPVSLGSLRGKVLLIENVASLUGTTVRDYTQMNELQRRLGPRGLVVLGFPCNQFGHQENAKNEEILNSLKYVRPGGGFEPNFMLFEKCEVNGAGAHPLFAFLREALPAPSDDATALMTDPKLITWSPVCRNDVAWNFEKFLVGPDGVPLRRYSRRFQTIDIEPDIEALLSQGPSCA
# The list shows a part of the results, in another mix than the full data. Inconclusive results are not listed. Activity calls are given as the source filed them. Unless noted, calls come from the whole dose curve; as a rule, active = well fitted curve in the direction sought with a large enough effect; inconclusive = small, poorly fitted or top-dose-only effect, or another doubt; inactive = no such curve, though single readings can be large; an effect the other way counts as inactive or inconclusive.
# How the values were obtained:
# [1] = Primary qHTS for inhibitors of nuclear receptor binding SET domain protein 2 (NSD2) in an isogenic RCH-ACV NSD2 p.E1099K mutant (9B) (AID 1645876); note: potency is the fitted concentration of half-maximal effect; nearly all actives have a fitted effect of over 70% in size
# [2] = Primary qHTS for inhibitors of nuclear receptor binding SET domain protein 2 (NSD2) in an RCH-ACV wild type WT cells (2C) (AID 1645877); note: potency is the fitted concentration of half-maximal effect; nearly all actives have a fitted effect of over 70% in size
# [3] = molecular target: Glutathione peroxidase 1 (Homo sapiens) (UniProt P07203); test: Primary qHTS Assay for Inhibitors of Recombinant Selenoprotein Glutathione Peroxidase 1 (GPX1) (AID 1845191); conditions: recombinant GPX1, GR-coupled NADPH fluorescence, 15 min; activity, negative = inhibition: at 48.8 µM (top of the series); note: nearly all actives have a fitted effect of over 65% in size
# Procedure, shortened: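 NADPH consumption tracked by fluorescence at 340/450 nm between t=0 and t=15 min, room temperature. Final mix: 10 nM GPX1, 100 nM glutathione reductase, 1 mM GSH, 0.5 mM NADPH, 0.5 mM cumene hydroperoxide, 0.01% BSA; 30 min compound–enzyme preincubation.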
# [4] = qHTS drug screen for cell cycle checkpoint inhibitors in PARPi-resistant BRCA-mutant ovarian cancer cell lines. (AID 1963452; calls by dose curve); conditions: PEO1/OlaR viability, CellTiter-Glo luminescence, 96 h; stronger effect = lower value
# Procedure, shortened: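 PEO1, PEO4 and PEO1/OlaR ovarian cancer cells, 600 per well, exposed 96 h at 37C to a dilution series. Viability read by CellTiter-Glo luminescence, normalized to DMSO and empty wells; activity summarized as Z-AUC.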
smiles,measurement,setting,value
N[C@@H](Cc1ccc([N+]([O-])(CCCl)CCCl)cc1)C(=O)O,Potency,[1],active: 3.72 µM
same,Potency,[2],active: 3.32 µM
same,outcome,[3],inactive
same,Z-AUC,[4],inactive: 0.317
